Patent publication US7189706B2, “C2,5′-disubstituted and N6,C2,5′-trisubstituted adenosine derivatives and pharmaceutical compositions containing them” (Universiteit Leiden, priority 2001, dated 2007)

The chains behind the UniProt entries cited, without tags or fusion partners.
UniProt P0DMS8, whole entry: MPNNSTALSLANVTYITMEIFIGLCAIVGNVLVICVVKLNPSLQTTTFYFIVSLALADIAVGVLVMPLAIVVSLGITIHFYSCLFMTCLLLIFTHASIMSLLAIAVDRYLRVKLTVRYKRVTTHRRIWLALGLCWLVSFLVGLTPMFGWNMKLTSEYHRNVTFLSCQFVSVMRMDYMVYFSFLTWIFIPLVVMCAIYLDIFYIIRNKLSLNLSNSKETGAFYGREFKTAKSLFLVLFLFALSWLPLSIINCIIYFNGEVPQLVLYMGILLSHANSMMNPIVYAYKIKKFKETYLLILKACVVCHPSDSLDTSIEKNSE

Target: T1, human A3 receptor as expressed in HEK 293 cells (Homo sapiens, UniProt P0DMS8)
T1 construct: expressed in transfected cells; host or cells: HEK 293 cell membranes
Test: Radioligand binding assay, displacement of [125I]AB-MECA (adenosine A3)
Details: ratio of Ki values of Table 2 (rat A2A / human A3)

“5′-Deoxy-2-iodo-5′-methylthioadenosine [Compound 33]” showed an A2A/A3 selectivity ratio of 15 fold.
